## Measured affinities in a library of Ab-91 heavy chain variants

Source: Engelhart et al. 2022 (doi:10.1038/s41597-022-01779-4), MIT Lincoln Laboratory and A-Alpha Bio; data file from the FLAb repository.

Target peptide (SARS-CoV-2 spike, HR2 region): PDVDLGDISGINAS

Ab-91 is the parent antibody, in scFv form: VL, then three GGGGS repeats, then VH. The light chain is unchanged in all variants.
VL: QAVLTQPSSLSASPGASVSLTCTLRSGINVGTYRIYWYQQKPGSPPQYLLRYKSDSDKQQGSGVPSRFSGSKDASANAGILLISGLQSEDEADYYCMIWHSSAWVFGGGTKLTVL
VH: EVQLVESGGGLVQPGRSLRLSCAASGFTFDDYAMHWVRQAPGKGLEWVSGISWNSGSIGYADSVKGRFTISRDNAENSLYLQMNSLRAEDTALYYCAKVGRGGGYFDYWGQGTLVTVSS

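Phage display of a naive human antibody library on the peptide gave the parent. Library AAYL51 holds single substitutions and randomly drawn double and triple substitutions in the CDRs. AlphaSeq pools MATa yeast showing the antibodies with MATalpha yeast showing the peptide. Mating (16 h, 30 °C) was followed by selection of diploids and sequencing of their barcodes. Scores were corrected for input abundance and mapped to Kd with protein pairs of known affinity run in the same pool. Mating was done three times.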

Variants are written as CDR1, CDR2 and CDR3 of the heavy chain (limits as in the source). Parent: GFTFDDYAMH, GISWNSGSIGYADSVK, VGRGGGYFDY.
Values are log10 of the apparent Kd in nM; lower means stronger binding.
Where no diploid with the target was found in that replicate, the entry reads "nd": below detection, most likely a poor binder, though not proof of it.

| CDR-H1 | CDR-H2 | CDR-H3 | replicates, log10 nM | empty controls |
|---|---|---|---|---|
| KFEFDDYAQH | GISWNSGSIGYADSVK | VGRGGGYFDY | 3.87 / 4.75 / 4.69 | 0 of 9 |
| GFTFDDYAMH | GISANSGSIGYADSVK | VGRGWGYFDV | nd / 4.98 / nd | 4 of 9 (4.54) |
| GFTFEDYAMH | GISWVSGSIGYADSVK | VGRGGGYFDF | 3.54 / 3.06 / nd | 4 of 9 (4.29) |
| GFTFDFYAMA | GISWNSGSIGYADSVK | VGRGIGYFDY | 3.98 / 4.21 / nd | 3 of 9 (3.32) |
| GFTFDDYAMH | GISWNLGSIGYADSVK | VGYVGGYFDY | 4.34 / nd / nd | 3 of 9 (4.70) |
| GVTFDDYAMH | GISWNSGSIGYKDSVK | VGRGGGYFDL | 4.02 / 6.93 / 4.75 | 5 of 9 (4.36) |
| GFTFDDYAMH | GISFWSGSIGYADNVK | VGRGGGYFDY | 4.47 / 4.33 / nd | 3 of 9 (4.20) |
| GFTFDDYAMH | GISWNSGSIGYADFVK | VKRGEGYFDY | nd / 3.61 / nd | 0 of 9 |
| GFTFDDYAMC | GISFNSGSIGYADSVK | VGRGGGHFDY | nd / 4.34 / nd | 3 of 9 (4.68) |
| GFCFDDYAMH | GISWNSRSIGYADSCK | VGRGGGYFDY | 4.08 / 3.03 / 2.44 | 3 of 9 (3.94) |
| GFTFDDYAMG | GISWNSGSIGYADKVK | VGFGGGYFDY | 3.45 / nd / nd | 1 of 9 (3.48) |
| GFTFSDYGMH | EISWNSGSIGYADSVK | VGRGGGYFDY | 4.35 / nd / 4.68 | 5 of 9 (4.35) |
| GFTFDDIAMH | DISWNSGSIGYADSVK | VGRGMGYFDY | nd / nd / nd | 0 of 9 |
| GFTFFDYAMH | GISWNPGSIGVADSVK | VGRGGGYFDY | 3.61 / 5.65 / nd | 6 of 9 (4.40) |
| GFTFDDYAMH | GISWNSGHIGYADSVK | IGRGGGYFDY | nd / 4.27 / 4.13 | 5 of 9 (5.13) |
| GFTFDDYAMH | GISWNSGVIGYAWSVK | VKRGGGYFDY | nd / nd / nd | 1 of 9 (4.08) |
| GFTDDDYAMH | GISWNSGSIGWADSVK | VGRGGGYSDY | nd / nd / nd | 0 of 9 |
| GFTFDDYAMH | GISWNSDSYGYADSVK | VGRRGGYFDY | nd / nd / nd | 0 of 9 |
| GFTFDDYAMH | GISWNSNSIGYADSVH | VMRGGGYFDY | 4.71 / 4.27 / 2.98 | 1 of 9 (4.96) |
| GFTFDDYAMH | NISWNSGPIGYADSVK | VGRGGGYFGY | 4.87 / 4.52 / nd | 2 of 9 (4.59) |
| GFTFDDYAMH | CISWNSASNGYADSVK | VGRGGGYFDY | 4.81 / nd / nd | 3 of 9 (5.17) |
| GFTFDDYPMH | GISWNSGLSGYADSVK | VGRGGGYFDY | 1.71 / 1.95 / 2.13 | 2 of 9 (3.79) |
| GFTFIDYAMH | GWSWNSGEIGYADSVK | VGRGGGYFDY | 3.28 / nd / nd | 0 of 9 |
| GFTFDDYAMH | GISWNSGSIGYIDSCK | MGRGGGYFDY | nd / nd / nd | 0 of 9 |
| GFTFDDYAMH | GISWNSGSIGYADSVK | VGRSGGPFDY | 1.16 / 1.08 / 0.66 | 6 of 9 (5.20) |
| GFTFDSYAMH | GIVWNSGSIGYADSVK | VGRGGGYFFY | 4.40 / 4.32 / 5.23 | 4 of 9 (4.45) |
| GFTFDDYAMH | GISWNSGSILYADSVK | VGRGGGVFDY | nd / nd / nd | 1 of 9 (5.28) |
| GFTFDDMAMH | GISWNSWSIGYADSVK | KGRGGGYFDY | nd / 5.38 / 4.18 | 3 of 9 (4.45) |
| GFTFDDYAMH | GISWDSGSIGYASSVK | VGRGSGYFDY | 3.73 / nd / nd | 0 of 9 |
| GFTFDDWAMH | GIWWNSGSIGLADSVK | VGRGGGYFDY | nd / nd / nd | 0 of 9 |

From the list, the first 3 with no signal in any replicate:

| CDR-H1 | CDR-H2 | CDR-H3 | replicates, log10 nM | empty controls |
|---|---|---|---|---|
| GFTFDDIAMH | DISWNSGSIGYADSVK | VGRGMGYFDY | nd / nd / nd | 0 of 9 |
| GFTFDDYAMH | GISWNSGVIGYAWSVK | VKRGGGYFDY | nd / nd / nd | 1 of 9 (4.08) |
| GFTDDDYAMH | GISWNSGSIGWADSVK | VGRGGGYSDY | nd / nd / nd | 0 of 9 |

For reference, the parent read 1.86 as the reference entry and 0.88 as a member of this library.
As a blank, each scFv also met three strains without target: over library AAYL51, 21% of these pairings were detected, typically at 4.54 and seldom below 3.26. Also given: how often the same scFv was detected with the empty control strains, with their mean in brackets.